# Laboratory results as given in patent US8278319B2, “Substituted spiroamine compounds” (Gruenenthal GmbH, priority 2008, dated 2012).
# The chains behind the UniProt entries cited, without tags or fusion partners.
# UniProt P35372, whole entry, looked up: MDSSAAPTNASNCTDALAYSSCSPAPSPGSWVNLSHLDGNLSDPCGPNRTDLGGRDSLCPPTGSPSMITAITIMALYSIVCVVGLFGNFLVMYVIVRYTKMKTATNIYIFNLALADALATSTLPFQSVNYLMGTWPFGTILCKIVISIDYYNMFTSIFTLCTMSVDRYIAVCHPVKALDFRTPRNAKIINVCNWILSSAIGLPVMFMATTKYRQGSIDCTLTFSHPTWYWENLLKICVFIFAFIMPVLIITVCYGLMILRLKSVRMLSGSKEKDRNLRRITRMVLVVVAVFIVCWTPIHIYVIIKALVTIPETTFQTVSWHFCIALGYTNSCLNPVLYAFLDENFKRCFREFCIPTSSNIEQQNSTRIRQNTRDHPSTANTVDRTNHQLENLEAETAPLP
# Target: human μ-opiate receptor (Homo sapiens, UniProt P35372)
# Assay: Affinity to the human μ-opiate receptor, [3H] naloxone displacement (SPA)
# Details: test substance 1 μM; inhibition of specific binding of [3H] naloxone; CHO-K1 membrane preparation
row,Structure (SMILES),μ-Opioid receptor [1 μM] % Inhibition [%]
1,"Cc1cc(S(=O)(=O)N2CCCCC2CCC(=O)N2CCC3(CC2)CCC(c2ccccc2)(N(C)C)CC3)c(C)cc1Cl (stereo not shown) [Compound 7, 3-(1-(4-Chloro-2,5-dimethylphenylsulfonyl)piperidin-2-yl)-1-(9-(dimethylamino)-9-phenyl-3-azaspiro[5.5]undecan-3-yl)propan-1-one]",101
2,"COc1cc(C)c(S(=O)(=O)N2CCCCC2CCCC(=O)N2CCC3(CC2)CCC(c2ccccc2)(N(C)C)CC3)c(C)c1 (stereo not shown) [Compound 8, 1-(9-(Dimethylamino)-9-phenyl-3-azaspiro[5.5]undecan-3-yl)-4-(1-(4-methoxy-2,6-dimethylphenylsulfonyl)piperidin-2-yl)butan-1-one]",103
3,"CN(C)C1(c2ccccc2)CCC2(CCN(C(=O)CC3CCCCN3S(=O)(=O)c3cccc(C(F)(F)F)c3)CC2)CC1 (stereo not shown) [Compound 9, 1-(9-(Dimethylamino)-9-phenyl-3-azaspiro[5.5]undecan-3-yl)-2-(1-(3-(trifluoromethyl)phenylsulfonyl)piperidin-2-yl)ethan-1-one]",103
4,"COc1cc(C)c(S(=O)(=O)N2C=CNC(=O)[C@H]2CC(=O)N2CCC3(CC2)CCC(c2ccccc2)(N(C)C)CC3)c(C)c1 [Compound 10, (3R)-3-(2-(9-(Dimethylamino)-9-phenyl-3-azaspiro[5.5]undecan-3-yl)-2-oxoethyl)-4-(4-methoxy-2,6-dimethylphenylsulfonyl)-3,4-dihydropyrazin-2(1H)-one]",96
5,"COc1cc(C)c(S(=O)(=O)N2CCCC[C@H]2COCC(=O)N2CCC3(CC2)CCC(c2cccc(F)c2)(N(C)C)CC3)c(C)c1 [Compound 11, 1-(9-(Dimethylamino)-9-(3-fluorophenyl)-3-azaspiro[5.5]undecan-3-yl)-2-(((S)-1-(4-methoxy-2,6-dimethylphenylsulfonyl)piperidin-2-yl)methoxy)ethanone]",106
6,"COc1cc(C)c(S(=O)(=O)N2CCCC[C@H]2COCC(=O)N2CCC3(CC2)CCC(c2ccccc2)(N2CCC2)CC3)c(C)c1 [Compound 12, 1-(9-(Azetidin-1-yl)-9-phenyl-3-azaspiro[5.5]undecan-3-yl)-2-(((S)-1-(4-methoxy-2,6-dimethylphenylsulfonyl)piperidin-2-yl)methoxy)ethanone]",84
7,"COc1cc(C)c(S(=O)(=O)N2CCCC[C@H]2COCC(=O)N2CCC3(CC2)CCC(c2ccccc2)(N2CC(F)(F)C2)CC3)c(C)c1 [Compound 13, 1-(9-(3,3-Difluoroazetidin-1-yl)-9-phenyl-3-azaspiro[5.5]undecan-3-yl)-2-(((S)-1-(4-methoxy-2,6-dimethylphenylsulfonyl)piperidin-2-yl)methoxy)ethanone]",2
